Results reported in patent publication US9018160B2, “Peptide tyrosine tyrosine analogues” (Imperial Innovations Limited, priority 2010, dated 2015).

What was measured:
Type in all cases: in vivo
[1] = Rat pharmacokinetics, comparison with and without Zn2+ (Example 12); conditions: rats, subcutaneous 1 mg/ml, zinc-free composition, FIG. 27
[2] = Feeding study in diet induced obese mice (Example 9); conditions: DIO mice, 300 nmol/kg subcutaneous once daily, 51 days, 1 zinc ion per peptide molecule
Description: 13 weeks prior to the start of the study, diet induced obese (DIO) mice were obtained by feeding C57BL/6 mice a high fat diet (60 kcal % fat). This diet was used throughout the study. […] Animals were randomized into treatment groups (n=7-8), with stratification by body weight.
at 300 nmol/kg, and with 1 zinc ion (as ZnCl2) per peptide molecule. Injection volume was […] for all treatment groups and mice were dosed for 51 days, at 16:00 hrs. Mice were fed 60 minutes after injection and had access to food until 07:30 hrs the following day when food was weighed and removed. Results

[3] = Acute feeding studies in mice; conditions: 50 nmol/kg subcutaneous
Description: Male C57BL/6 mice (Harlan) were used for all mouse experiments. Male Wistar rats (Charles River) were used for all rat experiments.
Mice were individually housed in IVC cages. Animals were randomised into treatment groups, with stratification by body weight. Mice were fasted overnight (16 hrs) prior to peptide or vehicle administration. All peptide solutions were prepared freshly, immediately prior to administration. The vehicle used for all studies was 5% v/v water and 95% v/v sodium chloride (0.9% w/v). Peptide and vehicle were administered by subcutaneous injection, with dosage corrected for bodyweight. The maximal injection volume was 100 μl. Vehicle or peptide was administered at 09:00 and animals were returned to their home cage with a known amount of food. Food intake was measured at 1, 2, 4, 8 and 24 hours post injection. All statistics are calculated using a one-way ANOVA with Dunnett's post-test or one-way ANOVA with Bonferroni post-test.
Mice were injected with the Analogue No. 15 (1000 nmol/kg) having the sequence
Mice were injected with Analogue No. 15 (5000 nmol/kg) having the sequence

In the case of `CC[C@H](C)[C@H](N)C(=O)N[C@@H](CCCCN)C(=O)N1CCC[C@H]1C(=O)N[C@@H](CCC(=O)O)C(=O)N[C@@H](C)C(=O)N1CCC[C@H]1C(=O)NCC(=O)N[C@@H](CCC(=O)O)C(=O)N[C@@H](CC(=O)O)C(=O)N[C@@H](C)C(=O)N[C@@H](CO)C(=O)N1CCC[C@H]1C(=O)N[C@@H](CCC(=O)O)C(=O)N[C@@H](CCC(=O)O)C(=O)N[C@@H](CC(C)C)C(=O)N[C@@H](CC(N)=O)C(=O)N[C@@H](CCCNC(=N)N)C(=O)N[C@@H](Cc1ccc(O)cc1)C(=O)N[C@@H](Cc1ccc(O)cc1)C(=O)N[C@@H](C)C(=O)N[C@@H](CO)C(=O)N[C@@H](CC(C)C)C(=O)N[C@@H](CCCNC(=N)N)C(=O)N[C@@H](Cc1c[nH]cn1)C(=O)N[C@@H](Cc1ccc(O)cc1)C(=O)N[C@@H](CC(C)C)C(=O)N[C@@H](CC(N)=O)C(=O)N[C@@H](CC(C)C)C(=O)N[C@H](C(=O)N[C@H](C(=O)N[C@@H](CCCNC(=N)N)C(=O)N[C@@H](CCC(N)=O)C(=O)N[C@@H](CCCNC(=N)N)C(=O)N[C@@H](Cc1ccc(O)cc1)C(N)=O)[C@@H](C)O)C(C)C` [PYY 3-36 NH2, reference compound], the “time of peak of plasma PYY 3-36 NH2” value [1] is reported as 10 to 15 min, the “effect on mean body weight compared to saline” value ([2]; FIGS. 10 and 11) is reported as “no sustained effect” and the “cumulative food intake compared to saline” value ([2]; FIGS. 12 and 13) is reported as “no sustained effect”. For the same compound, the “food intake compared with saline” value ([3]; over 24 hours, FIG. 2) was “reduce food intake compared with saline” and the “time until which food intake is significantly reduced” value ([3]; relative to saline, FIGS. 5 and 6) was “approximately 4 hours”.
